Paper PMC4063695, “Design of Embedded-Hybrid Antimicrobial Peptides with Enhanced Cell Selectivity and Anti-Biofilm Activity” (PLoS ONE, 2014)

System: human red blood cells (hRBC)
Assay: Hemolytic activity
Format: cell-based
Conditions: minimum concentration that caused 5% hemolysis of hRBC (footnote); 1% hRBC in PBS pH 7.4, 1 h, 37°C, OD 492 nm
Protocol: The amount of released hemoglobin by the lysis of erythrocytes was measured for hemolytic activity of peptides. Human erythrocytes were obtained from a healthy donor with written informed consent. The experimental protocol was reviewed and approved by the ethics committee of the Northeast Agricultural University Hospital. The measurement was based on a previously described method. The fresh hRBCs were washed three times by centrifugation (1000 g, 5 min, 4°C) in PBS (pH 7.4), and then resuspended in PBS to obtain the erythrocyte with a dilution of approximately 1% (v/v). Then, 50 µL of hRBCs solution was incubated with 50 µL of different concentrations of the peptides dissolved in PBS for 1 h at 37°C, before centrifugation (1000 g, 5 min, 4°C) again. The absorbance of the supernatants was measured at optical density (OD) 492 nm. […] The control samples for 0% and 100% hemolysis consisted of hRBCs in PBS (Ablank) only and in 0.1% Triton X-100 (Atriton), respectively. The percentage of hemolysis was calculated according to the following equation: [drawing 3]

SMILES: CC[C@H](C)[C@H](NC(=O)CN)C(=O)NCC(=O)N[C@@H](C)C(=O)N[C@H](C(=O)N[C@@H](CC(C)C)C(=O)N[C@@H](CCCCN)C(=O)N[C@H](C(=O)N[C@@H](CC(C)C)C(=O)N[C@H](C(=O)N[C@H](C(=O)NCC(=O)N[C@@H](CC(C)C)C(=O)N1CCC[C@H]1C(=O)N[C@@H](C)C(=O)N[C@@H](CC(C)C)C(=O)N[C@H](C(=O)N[C@@H](CO)C(=O)N[C@@H](Cc1c[nH]c2ccccc12)C(=O)N[C@H](C(=O)N[C@@H](CCCCN)C(=O)N[C@@H](CCCNC(=N)N)C(=O)N[C@@H](CCCCN)C(=O)N[C@@H](CCCNC(=N)N)C(=O)N[C@@H](CCC(N)=O)C(=O)N[C@@H](CCC(N)=O)C(N)=O)[C@@H](C)CC)[C@@H](C)CC)[C@@H](C)O)[C@@H](C)O)C(C)C)C(C)C [ME26, melittin, reference compound]
- MHC: 0.25 µM
